Reference: ChEMBL document CHEMBL5137074 (J Med Chem, 2022)

The chains behind the UniProt entries cited, without tags or fusion partners.
UniProt P08684, whole entry: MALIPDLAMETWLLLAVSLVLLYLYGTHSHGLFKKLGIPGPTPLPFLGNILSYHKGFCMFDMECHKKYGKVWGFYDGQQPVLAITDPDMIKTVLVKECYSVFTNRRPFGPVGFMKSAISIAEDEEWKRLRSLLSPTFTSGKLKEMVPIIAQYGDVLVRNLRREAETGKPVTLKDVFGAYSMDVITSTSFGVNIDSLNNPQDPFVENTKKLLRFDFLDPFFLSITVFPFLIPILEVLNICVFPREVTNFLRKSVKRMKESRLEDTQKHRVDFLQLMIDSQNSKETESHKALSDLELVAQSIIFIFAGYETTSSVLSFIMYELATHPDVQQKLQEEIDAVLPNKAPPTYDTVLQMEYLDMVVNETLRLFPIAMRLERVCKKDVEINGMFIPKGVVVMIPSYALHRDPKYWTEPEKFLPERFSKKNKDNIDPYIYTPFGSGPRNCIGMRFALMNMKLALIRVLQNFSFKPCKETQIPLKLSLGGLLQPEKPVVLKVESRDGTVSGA

Columns and labels:
[1] = target: T1, Membrane-associated tyrosine- and threonine-specific cdc2-inhibitory kinase (Homo sapiens, UniProt Q99640)
T1 sequence (Q99640 whole entry): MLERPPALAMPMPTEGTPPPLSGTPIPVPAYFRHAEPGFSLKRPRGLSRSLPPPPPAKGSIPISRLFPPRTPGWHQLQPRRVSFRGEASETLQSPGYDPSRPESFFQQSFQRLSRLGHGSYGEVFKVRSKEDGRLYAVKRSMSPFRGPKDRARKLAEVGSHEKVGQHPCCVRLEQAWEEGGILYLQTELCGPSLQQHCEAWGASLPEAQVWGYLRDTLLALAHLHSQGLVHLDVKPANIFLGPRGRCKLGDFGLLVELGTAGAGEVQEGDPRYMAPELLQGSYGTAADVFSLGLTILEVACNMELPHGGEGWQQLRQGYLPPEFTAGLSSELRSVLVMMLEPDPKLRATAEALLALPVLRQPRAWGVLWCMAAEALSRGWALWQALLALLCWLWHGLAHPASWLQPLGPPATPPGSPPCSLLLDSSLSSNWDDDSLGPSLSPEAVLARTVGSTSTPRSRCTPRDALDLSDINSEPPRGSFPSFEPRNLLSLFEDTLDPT

CYP3A4 = CYP3A4 (Homo sapiens, UniProt P08684); assay: in vitro

SMILES | IC50 [1] | IC50 shift (CYP3A4)
Cc1ccc(O)c(C)c1-n1c(Cl)c(C(N)=O)c2nc3ccccc3nc21 | 2400 nM | –
COc1ccc(C)c(-n2c(N)c(C(N)=O)c3nc4ccccc4nc32)c1C | 5300 nM | –
Cc1ccc(O)cc1-n1c(N)c(C(=O)NCCO)c2nc3ccccc3nc21 | 1200 nM | –
NC(=O)c1c(N)n(-c2cccc(O)c2)c2nc3ccccc3nc12 | 370 nM | –
Cc1cc(O)ccc1-n1c(N)c(C(N)=O)c2nc3ccccc3nc21 | 8400 nM | –
Cc1ccc(O)c(C)c1-n1c(N)c(C(N)=O)c2nccnc21 | – | 1
